Measured values taken from PubChem BioAssay AID2805 (Sanford-Burnham Center for Chemical Genomics, 2010).
This is a selection; strong and weak results do not stand in their true shares. Activity calls are given as the source filed them.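 Rule for the calls: active = activation factor of at least 2 at 20 µM; inactive = the rest.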

tested on: intestinal alkaline phosphatase [Mus musculus]; assay: activators of mouse IAP, primary screen, biochemical, luminescence, uHTS (AID 2805); conditions: muIAP, CDP-Star luminescence, 30 min; at 10 µM; hits give high values; 1 = vehicle-only enzyme signal, 0 = enzyme-free wells
How it was run: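 System: Mouse IAP enzyme | Also added: CDP-Star substrate | Dosing: Compounds dispensed in DMSO | Schedule: 30 min enzyme-substrate-compound incubation at room temperature | Technique: Chemiluminescence readout | Control set: DMSO-only wells and no-enzyme negative control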

SMILES | activation factor
Cc1cc(SC(NC(=O)c2ccccc2)C(Cl)(Cl)Cl)nc(C(C)C)n1 (centres undefined) | inactive: 0.886
CCCCOc1ccc(C(=O)NCC2(N3CCCCC3)CCCCC2)cc1OC | inactive: 1.25
CCOC(=O)Nc1ccc([As](=O)(O)O)c(O)c1 | inactive: 0.803
O=P(Nc1ccccn1)(c1cccc2ccccc12)c1cccc2ccccc12 | inactive: 0.978
Cc1cc(SC(NC=O)C(Cl)(Cl)Cl)ncn1 (centres undefined) | inactive: 1.07
CCOC(=O)Nc1cccc([As](=O)(O)O)c1 | inactive: 0.898
O=C(Nc1ccncc1[N+](=O)[O-])c1ccc([N+](=O)[O-])cc1[N+](=O)[O-] | inactive: 0.947
O=C(COc1ccccc1)OC1CN2CCC1CC2 (centres undefined) | inactive: 1.01
COP1(=S)c2c(C)nn(CCC#N)c2N=C(c2ccc(F)cc2)N1C (centres undefined) | inactive: 0.948
CCC(C)N(CC(C)C)C(=S)SC(NC(C)=O)C(Cl)(Cl)Cl (centres undefined) | inactive: 0.949
CCOC(=O)c1ccc(NC(=O)C(C)(CCl)SC)cc1 (centres undefined) | inactive: 1.1
O=C(OC1CN2CCC1CC2)c1cccc([N+](=O)[O-])c1 (centres undefined) | inactive: 1.03
COc1cc(I)ccc1[As](=O)(O)O | inactive: 0.96
COc1ccc2nc(NP(=O)(c3ccccc3)c3ccccc3)sc2c1 | inactive: 0.925
Cc1cc(=O)[nH]c(N[N+](=O)[O-])n1 | inactive: 1.08
O=C(OC1CN2CCC1CC2)C12CC3CC(CC(C3)C1)C2 (centres undefined) | inactive: 0.958
Cc1c2c(nc3ccccc13)SC(C(Cl)Cl)C2 (centres undefined) | inactive: 0.96
COc1ccc(N/C(=N/P(=O)(N2CCOCC2)N2CCOCC2)N2CCOCC2)cc1 | inactive: 0.911
Cc1ccc2nc3c(c(C)c2c1)CC(C(Cl)Cl)S3 (centres undefined) | inactive: 0.948
Cc1ccc(OP(=O)(Nc2ccc([N+](=O)[O-])cn2)Oc2ccc(C)cc2)cc1 | inactive: 1.05
COc1cc(C(=O)NCC2(N3CCOCC3)CCCCC2)ccc1OCC(C)C | inactive: 1.05
O=[As](O)(c1ccc(O)cc1)c1ccccc1O | inactive: 1.02
C[As](=O)(O)c1cccc(C(=O)O)c1 | inactive: 0.978
O=[N+]([O-])c1cc([N+](=O)[O-])c(-c2ccn[nH]2)s1 | inactive: 0.566
O=C(OC1CN2CCC1CC2)c1cccc2[nH]cnc12 (centres undefined) | inactive: 1
CCN(CC)C(=S)SC(NC=O)C(Cl)(Cl)Cl (centres undefined) | inactive: 1.06

SMILES | activation factor
CC(C)NC(=O)NP(=O)(Oc1ccccc1)Oc1ccccc1 | inactive: 1
CC(C)c1ccc(OP(=O)(Nc2ccccn2)Oc2ccccc2F)cc1 (centres undefined) | inactive: 0.985
ClCCSc1nnc(-c2cccnc2)o1 | inactive: 0.991
Nc1ccccc1[As](=O)(O)c1ccccc1 | inactive: 1.04
O=C(O)COc1ccc([As](=O)(O)O)cc1[N+](=O)[O-] | inactive: 1.06
CS(=O)(=O)c1cc([N+](=O)[O-])c2no[n+]([O-])c2c1 | inactive: 0.93
O=P(Nc1nccs1)(c1ccccc1)c1nc2ccccc2s1 (centres undefined) | inactive: 1.05
O=P(Nc1nccs1)(Oc1ccccc1)Oc1ccccc1 | inactive: 1.02
CCOP1(=S)c2c(C)nn(CCC#N)c2N=C(c2ccccc2F)N1C (centres undefined) | inactive: 0.998
CN(C(=O)Cc1ccc(Cl)c(Cl)c1)[C@H]1CC[C@@]2(CCCO2)C[C@@H]1N1CCCC1 | inactive: 1.03
CN(C)C(=O)c1cc([N+](=O)[O-])cc2c1-c1c(cc([N+](=O)[O-])cc1[N+](=O)[O-])C2=O | inactive: 1.05
O=[N+]([O-])c1ccc2c(c1)nnn2O | inactive: 1.04
CN(C(=O)Cc1ccccc1)[C@@H]1CC[C@]2(CCCO2)C[C@H]1N1CCCC1 | inactive: 0.96
CCOP1(=S)c2c(C)nn(CCC#N)c2N=C(c2ccc(F)cc2)N1C (centres undefined) | inactive: 0.886
N#CCCN(C(=O)COC(=O)C(O)(c1ccccc1)c1ccccc1)c1ccc(F)cc1 | inactive: 0.929
NC(=O)Nc1ccc([As](=O)(O)O)cc1 | inactive: 1.14
O=[As](O)(c1cccc(O)c1)c1cccc(O)c1 | inactive: 0.942
Cc1cccc(OCC(=O)OC2CN3CCC2CC3)c1 (centres undefined) | inactive: 0.983
CS(=O)(=O)c1ccc(Cl)c(NC(=O)COC(=O)C(O)(c2ccccc2)c2ccccc2)c1 | inactive: 0.986
COc1cc(C(=O)NCC2(N3CCOCC3)CCCCC2)cc(Cl)c1OC(C)C | inactive: 1.07
O=[As](O)(O)c1cccnc1 | inactive: 0.967
O=C(OC1CN2CCC1CC2)c1ccc(Cl)cc1 (centres undefined) | inactive: 1.05
CCOP(=O)(Nc1cccc2ccccc12)OCC | inactive: 0.962
COc1cc(C2NCCC3(OCCO3)C2(C)C)cc(OC)c1OC (centres undefined) | inactive: 0.984
CCCOP(=S)(Nc1nc(N)cc(=O)[nH]1)OCCC | inactive: 1
Cc1ccc(NCCc2c([N+](=O)[O-])cc([N+](=O)[O-])cc2[N+](=O)[O-])cc1 | inactive: 0.847

SMILES | activation factor
CC(C)(C)C(=O)NC(Sc1ncccn1)C(Cl)(Cl)Cl (centres undefined) | inactive: 1
Clc1n[nH]nc1-c1nn[nH][15n]1 | inactive: 0.995
CN(CCCl)Cc1cc(Cl)c(NC2=NCCN2)c(Cl)c1 | inactive: 0.977
CCOP(=O)(Nc1ccc(C)cn1)OCC | inactive: 1.13
CCOP(=O)(NC(=NC(C)c1ccccc1)NC(C)c1ccccc1)OCC (centres undefined) | inactive: 1.04
O=P1(Nc2ccccn2)COc2ccccc2OC1 | inactive: 1.04
CCC1=CC2Cc3nc4ccc(Cl)cc4c(N)c3C(C1)C2 (centres undefined) | inactive: 1.05
CC1(CBr)Cn2c(nc3ccccc3c2=O)S1 (centres undefined) | inactive: 1.06
O=[As](O)(c1ccccc1Br)c1ccccc1Br | inactive: 1.03
CC(C)/C=N\N=C(\N)N[N+](=O)[O-] | inactive: 1.09
CN(C(=O)Cc1ccc(Cl)c(Cl)c1)[C@@H]1CCCC[C@H]1N1CCCC1 | inactive: 1.01
COc1ccccc1CNC(=O)COC(=O)C(O)(c1ccccc1)c1ccccc1 | inactive: 0.965
O=C(/C=C/c1ccccc1)OC1CN2CCC1CC2 (centres undefined) | inactive: 1.07
CN(C)C1(CNC(=O)c2ccc(S(C)(=O)=O)cc2)CCCCC1 | inactive: 1.05
CC1CCC(C(C)C)C(OP(=O)(Nc2ccccn2)c2ccccc2)C1 (centres undefined) | inactive: 0.898
Cc1ccc(C(=O)OC2CN3CCC2CC3)cc1 (centres undefined) | inactive: 0.975
Cc1nn(-c2ccccc2)c2c1P(=O)(N1CCOCC1)N(C)C(c1ccccc1)=N2 (centres undefined) | inactive: 0.965
O=P1(Nc2ccc(Br)cn2)COc2ccccc2OC1 | inactive: 0.958
NS(=O)(=O)c1cccc(NC(=O)COC(=O)C(O)(c2ccccc2)c2ccccc2)c1 | inactive: 0.801
O=[As](O)(c1cccs1)c1cccs1 | inactive: 0.947
Cc1ccc(OCC(=O)OC2CN3CCC2CC3)cc1 (centres undefined) | inactive: 0.929
Nc1cccc([As](=O)(O)c2ccccc2)c1 | inactive: 1.03
O=P1(Nc2ncccn2)COc2ccccc2OC1 | inactive: 0.963
C[C@H]1OP(=O)(Oc2ccccc2)[C@H](O)[C@H](O)[C@H]1N=[N+]=[N-] (some centres undefined) | inactive: 1.12
O=P(Nc1nc2ccccc2s1)(c1ccccc1)c1ccccc1 | inactive: 0.982
O=P(Nc1ccccn1)(c1ccc(Br)cc1)c1ccc(Br)cc1 | inactive: 1.06

SMILES | activation factor
CN(C)C1(CNC(=O)c2ccc(Cl)c(S(N)(=O)=O)c2)CCCCC1 | inactive: 1.05
Nc1ccc([As](=O)(O)c2ccc([N+](=O)[O-])cc2)cc1 | inactive: 0.912
C(Cc1nn[nH]n1)Cc1nn[nH]n1 | inactive: 0.888
O=C(OC1CN2CCC1CC2)c1cccc(Cl)c1 (centres undefined) | inactive: 1.04
O=[N+]([O-])c1ncn(CCn2cnc([N+](=O)[O-])n2)n1 | inactive: 0.997
O=[As](O)(c1ccccc1)c1ccc(O)cc1 | inactive: 1.09
c1nnnn1CCn1cnnn1 | inactive: 1.08
CC(C)C(=O)NC(Sc1ccccc1)C(Cl)(Cl)Cl (centres undefined) | inactive: 1.07
O=P(Nc1nccs1)(c1ccccc1)c1ccccc1 | inactive: 0.952
CC(C)(C)C(=O)NC(Sc1ccccc1)C(Cl)(Cl)Cl (centres undefined) | inactive: 0.961
CCOc1ccc(C2=NCC(CBr)S2)cc1 (centres undefined) | inactive: 0.891
O=P1(Nc2nc3ccc(Cl)cc3s2)COc2ccccc2O1 (centres undefined) | inactive: 1.01
CC(=O)Nc1ccc(Oc2c([N+](=O)[O-])cc([N+](=O)[O-])cc2[N+](=O)[O-])cc1 | inactive: 1.1
CC(=O)Nc1ccc([As](=O)(O)O)c(O)c1 | inactive: 0.912
CC(=O)c1ccc(N2CC2c2ccncc2)cc1 (centres undefined) | inactive: 0.958
C[C@@H]1C=CCP(=O)(Oc2ccccc2)O1 (some centres undefined) | inactive: 0.943
C[C@H]1OP(=O)(Oc2ccccc2)C[C@@H]2O[C@@H]21 (some centres undefined) | inactive: 1.04
Cc1ccccc1CN(C)C(=O)COC(=O)C(O)(c1ccccc1)c1ccccc1 | inactive: 0.939
CCNC(=S)/N=C(\N)N[N+](=O)[O-] | inactive: 0.897
O=C(NC1CCS(=O)(=O)C1)NP(=S)(Oc1ccccc1)Oc1ccccc1 (centres undefined) | inactive: 1.03
CCOC(=O)NC(Sc1ccccc1)C(Cl)(Cl)Cl (centres undefined) | inactive: 0.921
Cc1ccc(NP(=O)(Oc2cccc(C)c2)Oc2cccc(C)c2)nc1 | inactive: 1.13
c1ccc(-c2nn[nH]n2)c(-c2nn[nH]n2)c1 | inactive: 0.947
CN(C)C(=O)Oc1noc2ccccc12 | inactive: 0.982
Cc1ccccc1OP(=O)(Nc1ccccn1)Oc1ccccc1C | inactive: 1
CC(NC(=O)COC(=O)C(O)(c1ccccc1)c1ccccc1)c1ccccc1 (centres undefined) | inactive: 1.08
